Measured values as given in patent EP0236477B1 (priority 1985, dated 1987).
Where two headings read alike, the source gives them in different places.

Columns and labels:
healthy males [1] = test system: healthy males
healthy males [2] = details: pretreatment 0.5, 1.0 or 2.0 mg intravenously

C=C1CC[C@@]2(O)[C@H]3Cc4ccc(O)c5c4[C@@]2(CCN3CC2CC2)[C@H]1O5 [6-methylene-6-desoxy-N-cyclopropylmethyl-14-hydroxydihydronormorphine]
persistence of antagonist effects (healthy males [1]; pretreatment 0.5 mg intravenously): about 4 hours
VE60 (healthy males [1]; pretreatment 0.5 mg intravenously, fentanyl challenge at about 4 hours): 64 % of control
VE60 (healthy males [1]; pretreatment 1.0 mg intravenously, fentanyl challenge at 6 hours): 66 % of control
VE60 (healthy males [1]; pretreatment 1.0 mg intravenously, fentanyl challenge at 8 hours): 61 % of control
effect on fentanyl respiratory depression compared to placebo pretreatment (healthy males [1]; pretreatment 1.0 mg intravenously, over 8 hours): significantly blunted the respiratory depression
prevention of the subjective and respiratory effects of fentanyl (healthy males [1]; pretreatment 2.0 mg intravenously, fentanyl 2 µg/kg at 1, 2, 4, 6, 8 hours): completely prevented the subjective and respiratory effects of fentanyl for the entire 8 hours
effect on the analgesic response to fentanyl (healthy males [2]): abolished this analgesic response in a dose-related time course
